Some results for these compounds are left out of this collection, so the calls shown say nothing about other tests.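 Results reflect a 48-hour exposure of cells in 96-well plates to compound at five concentrations. Abbreviation: GI50, concentration required for 50% inhibition of growth. At the TGI there is no net growth.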
How the values were obtained:
Test in all cases: NCI tumour cell line growth inhibition, 48 h
MDA-MB-231 breast = system: MDA-MB-231 breast
OVCAR-3 ovarian = system: OVCAR-3 ovarian
K-562 leukemia = system: K-562 leukemia
IGROV1 ovarian = system: IGROV1 ovarian
MDA-MB-435 = system: MDA-MB-435
SR leukemia = system: SR leukemia
SK-MEL-28 melanoma = system: SK-MEL-28 melanoma
RXF 393 renal = system: RXF 393 renal
TK-10 renal = system: TK-10 renal
CCRF-CEM leukemia = system: CCRF-CEM leukemia
SK-MEL-5 melanoma = system: SK-MEL-5 melanoma
A549 NSCLC = system: A549 NSCLC
OVCAR-5 ovarian = system: OVCAR-5 ovarian
M14 melanoma = system: M14 melanoma
PC-3 prostate = system: PC-3 prostate
HS 578T breast = system: HS 578T breast
SF-268 CNS = system: SF-268 CNS
NCI/ADR-RES ovarian = system: NCI/ADR-RES ovarian
786-0 renal = system: 786-0 renal
ACHN renal = system: ACHN renal
HT29 colon = system: HT29 colon
UO-31 renal = system: UO-31 renal
SK-MEL-2 melanoma = system: SK-MEL-2 melanoma
HL-60(TB) leukemia = system: HL-60(TB) leukemia
UACC-257 melanoma = system: UACC-257 melanoma
EKVX NSCLC = system: EKVX NSCLC
OVCAR-4 ovarian = system: OVCAR-4 ovarian
HOP-62 NSCLC = system: HOP-62 NSCLC
SN12C renal = system: SN12C renal
HCT-116 colon = system: HCT-116 colon
OVCAR-8 ovarian = system: OVCAR-8 ovarian
HCC-2998 colon = system: HCC-2998 colon
KM12 colon = system: KM12 colon
COLO 205 colon = system: COLO 205 colon
SF-539 CNS = system: SF-539 CNS
SNB-19 CNS = system: SNB-19 CNS
RPMI-8226 leukemia = system: RPMI-8226 leukemia
BT-549 breast = system: BT-549 breast
T-47D breast = system: T-47D breast
NCI-H23 lung = system: NCI-H23 lung
CAKI-1 renal = system: CAKI-1 renal
SK-OV-3 ovarian = system: SK-OV-3 ovarian
SF-295 CNS = system: SF-295 CNS
UACC-62 melanoma = system: UACC-62 melanoma
SNB-75 CNS = system: SNB-75 CNS
NCI-H460 lung = system: NCI-H460 lung
DU-145 prostate = system: DU-145 prostate
HCT-15 colon = system: HCT-15 colon
NCI-H226 lung = system: NCI-H226 lung
MDA-N = system: MDA-N
MALME-3M melanoma = system: MALME-3M melanoma
U251 CNS = system: U251 CNS
LOX IMVI melanoma = system: LOX IMVI melanoma
SW-620 colon = system: SW-620 colon
MOLT-4 leukemia = system: MOLT-4 leukemia

`CCCC#CC(O)(C(=O)OC1CN2CCC1CC2)C1CCCCC1` (stereo not given) showed a GI50 (MDA-MB-231 breast) of over 100 µM, a TGI (MDA-MB-231 breast) of over 100 µM and a GI50 (OVCAR-3 ovarian) of over 100 µM. The TGI (OVCAR-3 ovarian) was over 100 µM, the GI50 (K-562 leukemia) was over 100 µM and the TGI (K-562 leukemia) was over 100 µM. For the same molecule, the GI50 (IGROV1 ovarian) was over 100 µM, the TGI (IGROV1 ovarian) was over 100 µM and the GI50 (MDA-MB-435) was over 100 µM. For the same molecule, the TGI (MDA-MB-435) was over 100 µM, the GI50 (SR leukemia) was over 100 µM and the TGI (SR leukemia) was over 100 µM. For the same molecule, the GI50 (SK-MEL-28 melanoma) was over 100 µM, the TGI (SK-MEL-28 melanoma) was over 100 µM and the GI50 (RXF 393 renal) was 39.5 µM. For the same molecule, the TGI (RXF 393 renal) was over 100 µM, the GI50 (TK-10 renal) was over 100 µM and the TGI (TK-10 renal) was over 100 µM. For the same molecule, the GI50 (CCRF-CEM leukemia) was over 100 µM, the TGI (CCRF-CEM leukemia) was over 100 µM and the GI50 (SK-MEL-5 melanoma) was over 100 µM. For the same molecule, the TGI (SK-MEL-5 melanoma) was over 100 µM, the GI50 (A549 NSCLC) was over 100 µM and the TGI (A549 NSCLC) was over 100 µM. The GI50 (OVCAR-5 ovarian) was over 100 µM, the TGI (OVCAR-5 ovarian) was over 100 µM and the GI50 (M14 melanoma) was over 100 µM. The TGI (M14 melanoma) was over 100 µM, the GI50 (PC-3 prostate) was over 100 µM and the TGI (PC-3 prostate) was over 100 µM. For the same molecule, the GI50 (HS 578T breast) was over 100 µM, the TGI (HS 578T breast) was over 100 µM and the GI50 (SF-268 CNS) was 86.5 µM. The TGI (SF-268 CNS) was over 100 µM, the GI50 (NCI/ADR-RES ovarian) was over 100 µM and the TGI (NCI/ADR-RES ovarian) was over 100 µM. For the same molecule, the GI50 (786-0 renal) was over 100 µM, the TGI (786-0 renal) was over 100 µM and the GI50 (ACHN renal) was over 100 µM. The TGI (ACHN renal) was over 100 µM, the GI50 (HT29 colon) was 40.3 µM and the TGI (HT29 colon) was over 100 µM. For the same molecule, the GI50 (UO-31 renal) was 97.9 µM, the TGI (UO-31 renal) was over 100 µM and the GI50 (SK-MEL-2 melanoma) was over 100 µM. For the same molecule, the TGI (SK-MEL-2 melanoma) was over 100 µM, the GI50 (HL-60(TB) leukemia) was over 100 µM and the TGI (HL-60(TB) leukemia) was over 100 µM. It also gave a GI50 (UACC-257 melanoma) of over 100 µM, a TGI (UACC-257 melanoma) of over 100 µM and a GI50 (EKVX NSCLC) of over 100 µM. The TGI (EKVX NSCLC) was over 100 µM, the GI50 (OVCAR-4 ovarian) was over 100 µM and the TGI (OVCAR-4 ovarian) was over 100 µM. For the same molecule, the GI50 (HOP-62 NSCLC) was over 100 µM, the TGI (HOP-62 NSCLC) was over 100 µM and the GI50 (SN12C renal) was over 100 µM. It also gave a TGI (SN12C renal) of over 100 µM, a GI50 (HCT-116 colon) of over 100 µM and a TGI (HCT-116 colon) of over 100 µM. It also gave a GI50 (OVCAR-8 ovarian) of over 100 µM, a TGI (OVCAR-8 ovarian) of over 100 µM and a GI50 (HCC-2998 colon) of over 100 µM. The TGI (HCC-2998 colon) was over 100 µM, the GI50 (KM12 colon) was over 100 µM and the TGI (KM12 colon) was over 100 µM. For the same molecule, the GI50 (COLO 205 colon) was over 100 µM, the TGI (COLO 205 colon) was over 100 µM and the GI50 (SF-539 CNS) was over 100 µM. It also gave a TGI (SF-539 CNS) of over 100 µM, a GI50 (SNB-19 CNS) of over 100 µM and a TGI (SNB-19 CNS) of over 100 µM. The GI50 (RPMI-8226 leukemia) was over 100 µM, the TGI (RPMI-8226 leukemia) was over 100 µM and the GI50 (BT-549 breast) was over 100 µM. The TGI (BT-549 breast) was over 100 µM, the GI50 (T-47D breast) was over 100 µM and the TGI (T-47D breast) was over 100 µM. It also gave a GI50 (NCI-H23 lung) of over 100 µM, a TGI (NCI-H23 lung) of over 100 µM and a GI50 (CAKI-1 renal) of 25.8 µM. It also gave a TGI (CAKI-1 renal) of 82.2 µM, a GI50 (SK-OV-3 ovarian) of over 100 µM and a TGI (SK-OV-3 ovarian) of over 100 µM. The GI50 (SF-295 CNS) was over 100 µM, the TGI (SF-295 CNS) was over 100 µM and the GI50 (UACC-62 melanoma) was 95.4 µM. It also gave a TGI (UACC-62 melanoma) of over 100 µM, a GI50 (SNB-75 CNS) of 31.4 µM and a TGI (SNB-75 CNS) of over 100 µM. The GI50 (NCI-H460 lung) was over 100 µM, the TGI (NCI-H460 lung) was over 100 µM and the GI50 (DU-145 prostate) was over 100 µM. For the same molecule, the TGI (DU-145 prostate) was over 100 µM, the GI50 (HCT-15 colon) was over 100 µM and the TGI (HCT-15 colon) was over 100 µM. The GI50 (NCI-H226 lung) was over 100 µM, the TGI (NCI-H226 lung) was over 100 µM and the GI50 (MDA-N) was over 100 µM. The TGI (MDA-N) was over 100 µM, the GI50 (MALME-3M melanoma) was over 100 µM and the TGI (MALME-3M melanoma) was over 100 µM. It also gave a GI50 (U251 CNS) of over 100 µM, a TGI (U251 CNS) of over 100 µM and a GI50 (LOX IMVI melanoma) of over 100 µM. The TGI (LOX IMVI melanoma) was over 100 µM, the GI50 (SW-620 colon) was over 100 µM and the TGI (SW-620 colon) was over 100 µM. It also gave a GI50 (MOLT-4 leukemia) of 53.8 µM and a TGI (MOLT-4 leukemia) of over 100 µM.
